The experiment deals with C-domain of MALT1 (amino acids 329-824) (Homo sapiens (Human), UniProt Q9UDY8). As to the kind of experiment: MALT1 biochemical assay (fluorescence lifetime enzyme activity assay). The note with it: 60 min pre-incubation, 2.5 nM enzyme, 1 μM peptide substrate. On the procedure: The readout parameter is the increase of fluorescence lifetime over time, proportional to enzyme activity.
The assay employs a short peptide substrate labeled with the single fluorophore PT14 as a fluorescence lifetime probe sensitive to the cleavage state of the substrate (PT14: 6-(9-oxo-9H-acridin-10-yl)-hexanoate, AssayMetrics, UK). […] The assay buffer consists of 200 mM Tris/HCl at pH 7.5, 0.8 M Na citrate, 100 μM EGTA, 100 μM DTT and 0.05% (w/v) CHAPS. […] Test compounds were dissolved in 100% (v/v) DMSO or a mixture containing 90% (v/v) DMSO and 10% (v/v) H2O at a stock concentration of 100 mM. Serial dilutions of test compounds were prepared using either 100% (v/v) DMSO or a mixture containing 90% (v/v) DMSO and 10% (v/v) H2O.

Amino acid sequences for entries named in this document (tags omitted). Residues count along the entry.
UniProt Q9UDY8, 329-824: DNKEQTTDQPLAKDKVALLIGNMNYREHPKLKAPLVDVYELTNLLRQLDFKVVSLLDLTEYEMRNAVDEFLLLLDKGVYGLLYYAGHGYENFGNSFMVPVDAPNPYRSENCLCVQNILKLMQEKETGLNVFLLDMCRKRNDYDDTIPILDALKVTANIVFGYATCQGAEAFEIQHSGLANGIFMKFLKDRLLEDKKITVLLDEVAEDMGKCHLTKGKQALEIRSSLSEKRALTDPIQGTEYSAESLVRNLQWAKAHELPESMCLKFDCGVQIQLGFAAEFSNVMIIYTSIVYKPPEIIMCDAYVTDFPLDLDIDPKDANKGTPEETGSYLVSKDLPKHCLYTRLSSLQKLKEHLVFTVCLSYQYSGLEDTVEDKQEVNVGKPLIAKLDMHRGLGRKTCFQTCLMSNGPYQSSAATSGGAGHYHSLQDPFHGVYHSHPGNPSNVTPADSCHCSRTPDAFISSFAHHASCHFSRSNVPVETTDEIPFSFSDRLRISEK

As to `CO[C@@H](C)c1c(NC(=O)Nc2ccnc(C(F)(F)F)c2)cnc2cc(C)nn12` [Example 6, (S)-1-(7-(1-methoxyethyl)-2-methylpyrazolo[1,5-a]pyrimidin-6-yl)-3-(2-(trifluoromethyl)pyridin-4-yl)urea], 10 nM corresponded to half-maximal inhibition (IC50).
Turning to `COc1ncc(NC(=O)Nc2cnc3cc(Cl)nn3c2[C@H](C)OC)cc1Cl` [Example 9, (S)-1-(5-chloro-6-methoxypyridin-3-yl)-3-(2-chloro-7-(1-methoxyethyl)pyrazolo[1,5-a]pyrimidin-6-yl)urea], half-maximal inhibition (IC50) required 2 nM.
To `CC1(c2c(NC(=O)Nc3cnc(-n4nccn4)c(Cl)c3)cnc3cc(Cl)nn23)CC1` [Example 16, 1-(5-chloro-6-(2H-1,2,3-triazol-2-yl)pyridin-3-yl)-3-(2-chloro-7-(1-methylcyclopropyl)pyrazolo[1,5-a]pyrimidin-6-yl)urea] belongs 2 nM; to `CCC(C)c1c(NC(=O)Nc2cnc(-n3nccn3)c(Cl)c2)cnc2cc(Cl)nn12` (centres unmarked) [Example 35, 1-(7-(sec-butyl)-2-chloropyrazolo[1,5-a]pyrimidin-6-yl)-3-(5-chloro-6-(2H-1,2,3-triazol-2-yl)pyridin-3-yl)urea], 3 nM.
The same measure for `COCCO[C@@H](C)c1c(NC(=O)Nc2ccnc(C(F)(F)F)c2)cnc2cc(Cl)nn12` [Example 41, (S)-1-(2-chloro-7-(1-(2-methoxyethoxy)ethyl)pyrazolo[1,5-a]pyrimidin-6-yl)-3-(2-(trifluoromethyl)pyridin-4-yl)urea]: 24 nM.
`O=C(Nc1cnc(-n2nccn2)c(Cl)c1)Nc1cnc2cc(Cl)nn2c1C1COCCO1` (centres unmarked) [Example 43, 1-(5-chloro-6-(2H-1,2,3-triazol-2-yl)pyridin-3-yl)-3-(2-chloro-7-(1,4-dioxan-2-yl)pyrazolo[1,5-a]pyrimidin-6-yl)urea] returned an IC50 of 9 nM.
The same measure for `COCC1(c2c(NC(=O)Nc3ccnc(C(F)(F)F)c3)cnc3cc(Cl)nn23)CCC1` [Example 51, 1-(2-chloro-7-(1-(methoxymethyl)cyclobutyl)pyrazolo[1,5-a]pyrimidin-6-yl)-3-(2-(trifluoromethyl)pyridin-4-yl)urea]: 6 nM; for `O=C(Nc1cnc(-n2nccn2)c(C(F)(F)F)c1)Nc1cnc2cc(Cl)nn2c1C1CCCO1` (centres unmarked) [Example 54, 1-(6-(2H-1,2,3-triazol-2-yl)-5-(trifluoromethyl)pyridin-3-yl)-3-(2-chloro-7-(tetrahydrofuran-2-yl)pyrazolo[1,5-a]pyrimidin-6-yl)urea]: 4 nM.
In turn, `O=C(Nc1cnc(-n2nccn2)c(C(F)(F)F)c1)Nc1cnc2cc(Cl)nn2c1-c1ccco1` [Example 63, 1-(6-(2H-1,2,3-triazol-2-yl)-5-(trifluoromethyl)pyridin-3-yl)-3-(2-chloro-7-(furan-2-yl)pyrazolo[1,5-a]pyrimidin-6-yl)urea] came in with an IC50 of 8 nM.
To `O=C(Nc1cnc(-n2nccn2)c(Cl)c1)Nc1cnc2cc(Cl)nn2c1C1CC12CCOC2` (centres unmarked) [Example 68, 1-(5-chloro-6-(2H-1,2,3-triazol-2-yl)pyridin-3-yl)-3-(2-chloro-7-(5-oxaspiro[2.4]heptan-1-yl)pyrazolo[1,5-a]pyrimidin-6-yl)urea] belongs 39 nM; to `COc1ncc(NC(=O)Nc2cnc3cc(Cl)nn3c2-c2ccncc2)cc1Cl` [Example 69, 1-(5-chloro-6-methoxypyridin-3-yl)-3-(2-chloro-7-(pyridin-4-yl)pyrazolo[1,5-a]pyrimidin-6-yl)urea], 86 nM.
To `CN1CCOCC1Cc1c(NC(=O)Nc2cnc(-n3nccn3)c(Cl)c2)cnc2cc(Cl)nn12` (centres unmarked) [Example 83, 1-(5-chloro-6-(2h-1,2,3-triazol-2-yl)pyridin-3-yl)-3-(2-chloro-7-((4-methylmorpholin-3-yl)methyl)pyrazolo[1,5-a]pyrimidin-6-yl)urea] belongs 55 nM.
`COc1ncc(NC(=O)Nc2cnc3cc(Cl)nn3c2C2CCC(C)O2)cc1Cl` (centres unmarked) [Example 87, 1-(5-chloro-6-methoxypyridin-3-yl)-3-(2-chloro-7-(5-methyltetrahydrofuran-2-yl)pyrazolo[1,5-a]pyrimidin-6-yl)urea] yielded an IC50 of 7 nM.
To `CO[C@H](c1c(NC(=O)Nc2cnc(-n3nccn3)c(Cl)c2)cnc2cc(Cl)nn12)[C@@H](C)OC` [Example 98, 1-(5-chloro-6-(2H-1,2,3-triazol-2-yl)pyridin-3-yl)-3-(2-chloro-7-((1R,2R)-1,2-dimethoxypropyl)pyrazolo[1,5-a]pyrimidin-6-yl)urea] belongs 5 nM.
The same measure for `CN1CCOC(c2c(NC(=O)Nc3cnc(-n4nccn4)c(Cl)c3)cnc3cc(Cl)nn23)C1` (centres unmarked) [Example 116, 1-(5-chloro-6-(2H-1,2,3-triazol-2-yl)pyridin-3-yl)-3-(2-chloro-7-(4-methylmorpholin-2-yl)pyrazolo[1,5-a]pyrimidin-6-yl)urea]: 71 nM; for `C[C@H](c1c(NC(=O)Nc2cnc(-n3nccn3)c(Cl)c2)cnc2cc(Cl)nn12)N(C)C` [Example 121, (R)-1-(5-chloro-6-(2H-1,2,3-triazol-2-yl)pyridin-3-yl)-3-(2-chloro-7-(1-(dimethylamino)ethyl)pyrazolo[1,5-a]pyrimidin-6-yl)urea]: 20 nM; for `C[C@@H](c1c(NC(=O)Nc2cnc(-n3nccn3)c(Cl)c2)cnc2cc(Cl)nn12)N(C)C` [Example 122, (S)-1-(5-chloro-6-(2H-1,2,3-triazol-2-yl)pyridin-3-yl)-3-(2-chloro-7-(1-(dimethylamino)ethyl)pyrazolo[1,5-a]pyrimidin-6-yl)urea]: 8 nM.

As a reminder, the IC50 is the concentration that inhibits the measured activity by half.

For the origin of these results see patent publication US9815842B2, “Pyrazolo pyrimidine derivatives and their use as MALT1 inhibitors” (Novartis AG, priority 2014, dated 2017).
